Measurements reported in PubChem BioAssay (NCI).
Some results for these compounds are left out of this collection, so the calls shown say nothing about other tests.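 Five concentrations, 48 hours, 96-well plates. GI50: concentration for 50% inhibition of growth. TGI is the concentration that stops growth completely.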

How the values were obtained:
Test in all cases: growth of human tumour cells (NCI), 48 h
M14 melanoma = test system: M14 melanoma
SNB-75 CNS = test system: SNB-75 CNS
SK-MEL-5 melanoma = test system: SK-MEL-5 melanoma
OVCAR-8 ovarian = test system: OVCAR-8 ovarian
786-0 renal = test system: 786-0 renal
NCI-H23 lung = test system: NCI-H23 lung
A498 renal = test system: A498 renal
SNB-19 CNS = test system: SNB-19 CNS
MDA-N = test system: MDA-N
MOLT-4 leukemia = test system: MOLT-4 leukemia
HCT-116 colon = test system: HCT-116 colon
NCI-H322M lung = test system: NCI-H322M lung
RXF 393 renal = test system: RXF 393 renal
HOP-92 NSCLC = test system: HOP-92 NSCLC
MDA-MB-435 = test system: MDA-MB-435
U251 CNS = test system: U251 CNS
NCI-H522 lung = test system: NCI-H522 lung
OVCAR-4 ovarian = test system: OVCAR-4 ovarian
OVCAR-3 ovarian = test system: OVCAR-3 ovarian
IGROV1 ovarian = test system: IGROV1 ovarian
TK-10 renal = test system: TK-10 renal
MALME-3M melanoma = test system: MALME-3M melanoma
HOP-62 NSCLC = test system: HOP-62 NSCLC
BT-549 breast = test system: BT-549 breast
CAKI-1 renal = test system: CAKI-1 renal
SF-539 CNS = test system: SF-539 CNS
PC-3 prostate = test system: PC-3 prostate
SK-MEL-2 melanoma = test system: SK-MEL-2 melanoma

For `O=C(OC1CN2CCC1CC2)C(O)(C#Cc1ccccc1)c1ccccc1` (stereo unspecified), the GI50 (M14 melanoma) was > 100 µM, the TGI (M14 melanoma) was > 100 µM and the GI50 (SNB-75 CNS) was > 100 µM. The TGI (SNB-75 CNS) was > 100 µM, the GI50 (SK-MEL-5 melanoma) was > 100 µM and the TGI (SK-MEL-5 melanoma) was > 100 µM. For the same compound, the GI50 (OVCAR-8 ovarian) was > 100 µM, the TGI (OVCAR-8 ovarian) was > 100 µM and the GI50 (786-0 renal) was > 100 µM. For the same compound, the TGI (786-0 renal) was > 100 µM, the GI50 (NCI-H23 lung) was > 100 µM and the TGI (NCI-H23 lung) was > 100 µM. For the same compound, the GI50 (A498 renal) was > 100 µM, the TGI (A498 renal) was > 100 µM and the GI50 (SNB-19 CNS) was > 100 µM. For the same compound, the TGI (SNB-19 CNS) was > 100 µM, the GI50 (MDA-N) was > 100 µM and the TGI (MDA-N) was > 100 µM. For the same compound, the GI50 (MOLT-4 leukemia) was > 100 µM, the TGI (MOLT-4 leukemia) was > 100 µM and the GI50 (HCT-116 colon) was > 100 µM. For the same compound, the TGI (HCT-116 colon) was > 100 µM, the GI50 (NCI-H322M lung) was > 100 µM and the TGI (NCI-H322M lung) was > 100 µM. For the same compound, the GI50 (RXF 393 renal) was > 100 µM, the TGI (RXF 393 renal) was > 100 µM and the GI50 (HOP-92 NSCLC) was > 100 µM. For the same compound, the TGI (HOP-92 NSCLC) was > 100 µM, the GI50 (MDA-MB-435) was > 100 µM and the TGI (MDA-MB-435) was > 100 µM. For the same compound, the GI50 (U251 CNS) was > 100 µM, the TGI (U251 CNS) was > 100 µM and the GI50 (NCI-H522 lung) was > 100 µM. The TGI (NCI-H522 lung) was > 100 µM, the GI50 (OVCAR-4 ovarian) was > 100 µM and the TGI (OVCAR-4 ovarian) was > 100 µM. The GI50 (OVCAR-3 ovarian) was > 100 µM, the TGI (OVCAR-3 ovarian) was > 100 µM and the GI50 (IGROV1 ovarian) was 96.4 µM. For the same compound, the TGI (IGROV1 ovarian) was > 100 µM, the GI50 (TK-10 renal) was > 100 µM and the TGI (TK-10 renal) was > 100 µM. For the same compound, the GI50 (MALME-3M melanoma) was > 100 µM, the TGI (MALME-3M melanoma) was > 100 µM and the GI50 (HOP-62 NSCLC) was > 100 µM. The TGI (HOP-62 NSCLC) was > 100 µM, the GI50 (BT-549 breast) was > 100 µM and the TGI (BT-549 breast) was > 100 µM. For the same compound, the GI50 (CAKI-1 renal) was > 100 µM, the TGI (CAKI-1 renal) was > 100 µM and the GI50 (SF-539 CNS) was > 100 µM. For the same compound, the TGI (SF-539 CNS) was > 100 µM, the GI50 (PC-3 prostate) was > 100 µM and the TGI (PC-3 prostate) was > 100 µM. The GI50 (SK-MEL-2 melanoma) was > 100 µM and the TGI (SK-MEL-2 melanoma) was > 100 µM.
